Measurements: ChEMBL document CHEMBL3407416, “Discovery of (R)-8-(1-(3,5-difluorophenylamino)ethyl)-N,N-dimethyl-2-morpholino-4-oxo-4H-chromene-6-carboxamide (AZD8186): a potent and selective inhibitor of PI3Kβ and PI3Kδ for the treatment of PTEN-deficient cancers” (J Med Chem, 2015)

Chains of the proteins cited; added tags and fusions are not shown. Lines headed by an entry give the natural chain unless they say otherwise; changes in a name come on top.
UniProt P42338: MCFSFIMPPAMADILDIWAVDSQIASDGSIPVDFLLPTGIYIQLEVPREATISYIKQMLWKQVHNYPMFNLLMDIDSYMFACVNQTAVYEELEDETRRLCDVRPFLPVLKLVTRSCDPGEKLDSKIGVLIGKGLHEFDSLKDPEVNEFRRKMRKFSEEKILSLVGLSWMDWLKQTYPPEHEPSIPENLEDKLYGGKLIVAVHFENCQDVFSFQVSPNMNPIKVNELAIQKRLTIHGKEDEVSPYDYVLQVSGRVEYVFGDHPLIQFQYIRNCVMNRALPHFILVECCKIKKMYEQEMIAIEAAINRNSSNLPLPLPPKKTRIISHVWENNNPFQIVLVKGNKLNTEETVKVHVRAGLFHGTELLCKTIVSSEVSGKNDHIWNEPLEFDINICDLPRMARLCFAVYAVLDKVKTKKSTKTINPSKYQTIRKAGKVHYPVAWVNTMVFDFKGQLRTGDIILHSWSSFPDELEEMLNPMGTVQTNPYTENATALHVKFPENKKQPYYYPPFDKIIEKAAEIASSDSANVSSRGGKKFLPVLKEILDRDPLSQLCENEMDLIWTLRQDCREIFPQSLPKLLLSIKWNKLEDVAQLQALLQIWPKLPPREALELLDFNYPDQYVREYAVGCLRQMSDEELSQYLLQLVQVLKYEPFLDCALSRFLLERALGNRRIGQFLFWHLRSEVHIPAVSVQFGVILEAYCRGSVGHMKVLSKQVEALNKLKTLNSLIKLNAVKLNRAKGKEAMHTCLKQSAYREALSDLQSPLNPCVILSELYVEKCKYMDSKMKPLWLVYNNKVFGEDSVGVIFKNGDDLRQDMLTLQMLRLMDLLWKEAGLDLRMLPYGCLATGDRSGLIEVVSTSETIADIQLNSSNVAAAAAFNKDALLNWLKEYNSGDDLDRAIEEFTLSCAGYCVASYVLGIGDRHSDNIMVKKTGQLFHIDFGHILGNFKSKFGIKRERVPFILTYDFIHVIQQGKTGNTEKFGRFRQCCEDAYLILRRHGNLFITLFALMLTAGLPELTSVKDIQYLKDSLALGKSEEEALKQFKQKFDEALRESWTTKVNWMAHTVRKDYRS

What was measured:
[1] = target: T1, Phosphatidylinositol 4,5-bisphosphate 3-kinase catalytic subunit beta isoform (Homo sapiens, UniProt P42338); assay: Inhibition of human recombinant PI3Kbeta using PIP2 by Kinase-Glo Plus assay
[2] = target: T1, Phosphatidylinositol 4,5-bisphosphate 3-kinase catalytic subunit beta isoform; assay: Inhibition of PI3Kbeta in PTEN-null human MDA-MB-468 cells assessed as inhibition of Akt phosphorylation after 2 hrs; format: cell-based

IC50 [1]	IC50 [2]	Compound
4 nM	2 nM	C[C@@H](Nc1cc(F)cc(F)c1)c1cc(C(=O)N2CCC2)cc2c(=O)cc(N3CCOCC3)oc12
7 nM	15 nM	C[C@H](c1cc(C(=O)N(C)C)cc2c(=O)cc(N3CCOCC3)oc12)N(C)c1cc(F)cc(F)c1
5 nM	1 nM	C[C@@H](Nc1cc(F)cc(Cl)c1)c1cc(C(=O)N(C)C)cc2c(=O)cc(N3CCOCC3)oc12
4 nM	3 nM	C[C@@H](Nc1cc(F)cc(F)c1)c1cc(C(=O)N(C)C)cc2c(=O)cc(N3CCOCC3)oc12 [AZD-8186]
